PubChem BioAssay AID504523 (Broad Institute, 2011)
This is a selection; strong and weak results do not stand in their true shares. The source made the active and inactive calls. Cut-off read from the data, not from the text of the source: active = inhibition above about 12%; inconclusive = no clear call, values can overlap the other calls; inactive = below about 7.3%.

By UniProt entry, the sequences of proteins in these tests, tags left out.
UniProt Q14145, whole entry: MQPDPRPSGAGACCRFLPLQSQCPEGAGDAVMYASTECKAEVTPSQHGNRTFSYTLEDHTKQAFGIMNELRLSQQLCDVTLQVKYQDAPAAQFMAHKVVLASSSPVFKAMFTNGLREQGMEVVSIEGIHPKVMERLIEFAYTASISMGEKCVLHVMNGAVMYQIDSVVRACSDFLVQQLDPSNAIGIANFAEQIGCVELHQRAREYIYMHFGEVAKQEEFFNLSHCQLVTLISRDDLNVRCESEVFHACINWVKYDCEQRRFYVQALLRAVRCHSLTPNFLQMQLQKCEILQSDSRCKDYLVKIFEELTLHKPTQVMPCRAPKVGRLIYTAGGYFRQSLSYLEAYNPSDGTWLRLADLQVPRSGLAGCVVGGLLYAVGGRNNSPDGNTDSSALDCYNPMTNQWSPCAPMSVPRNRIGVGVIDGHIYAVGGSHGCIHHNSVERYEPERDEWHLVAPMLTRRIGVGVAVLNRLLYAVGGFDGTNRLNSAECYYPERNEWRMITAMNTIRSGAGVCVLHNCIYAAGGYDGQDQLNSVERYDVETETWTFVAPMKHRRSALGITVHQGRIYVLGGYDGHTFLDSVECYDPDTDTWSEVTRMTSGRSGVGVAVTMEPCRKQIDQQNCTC
UniProt Q16236, whole entry partner: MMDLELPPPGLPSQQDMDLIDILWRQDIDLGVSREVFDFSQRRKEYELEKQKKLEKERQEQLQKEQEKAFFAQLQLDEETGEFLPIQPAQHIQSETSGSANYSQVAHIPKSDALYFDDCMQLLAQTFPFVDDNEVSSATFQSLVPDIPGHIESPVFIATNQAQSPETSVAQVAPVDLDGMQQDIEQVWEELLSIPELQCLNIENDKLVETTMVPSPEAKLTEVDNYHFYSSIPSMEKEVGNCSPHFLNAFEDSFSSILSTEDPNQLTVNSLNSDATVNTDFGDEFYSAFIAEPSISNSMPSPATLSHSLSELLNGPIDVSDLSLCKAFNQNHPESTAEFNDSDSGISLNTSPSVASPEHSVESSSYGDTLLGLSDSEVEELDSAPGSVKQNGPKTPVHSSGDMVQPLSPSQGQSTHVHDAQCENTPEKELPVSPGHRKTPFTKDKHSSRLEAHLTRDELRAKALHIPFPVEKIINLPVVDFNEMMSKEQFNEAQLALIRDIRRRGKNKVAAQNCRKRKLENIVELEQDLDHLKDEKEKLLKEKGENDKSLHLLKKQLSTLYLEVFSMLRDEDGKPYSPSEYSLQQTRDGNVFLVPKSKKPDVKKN

Biological target: Kelch-like ECH-associated protein 1 (Homo sapiens) (UniProt Q14145)
Experiment: Keap1-Nrf2 protein-protein interaction inhibitors, primary screen, biochemical, fluorescence polarization, single point (AID 504523);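 note: human Keap1 Kelch domain with fluorescein labeled Nrf2 9mer peptide probe; 0% = neutral control wells and 100% = peptide positive control; higher means more block of Keap1 binding to Nrf2 peptide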
Conditions: Keap1 Kelch-Nrf2 peptide fluorescence polarization, 1536-well; at 9.4 µM; hits give high values

Compound	inhibition
Cc1cc(N(CCCl)CCCl)ccc1C=O	inactive: -4.58%
CCCN1CCC(Nc2cc(OC)cc(OC)c2)CC1	active: 15%
c1ccc(CN2CCC(Nc3ccccc3)CC2)cc1	inactive: 3.9%
CN(C)C1(CNC(=O)c2cccc(C#N)c2)CCCCC1	inactive: -1.65%
CC(C)(C)OC(=O)N1CCC(N(C(=O)c2ccccc2)c2ccc(Cl)cc2)CC1	inactive: -4.62%
N#Cc1ccc(C(=O)NCC2(N3CCCCC3)CCCCC2)cc1	inactive: -0.387%
O=C(OC1CN2CCC1CC2)C1c2ccccc2C=Cc2ccccc21 (centres undefined)	inactive: -3.73%
N/C(=N\O)c1c(N)no[n+]1[O-]	inactive: -2%
CCOC(=O)N1CCC(Nc2ccc(C)cc2)CC1	inactive: -3.11%
COc1ccc(C(=O)NCC2(N3CCOCC3)CCCCC2)cc1OC	inactive: -4.91%
O=C(NCC1(N2CCOCC2)CCCCC1)c1cc(Br)ccc1Cl	inactive: -10.6%
COc1cc(C(=O)NCC2(N3CCOCC3)CCCCC2)cc(OC)c1C	inactive: 4.48%
CN1CCC(Nc2ccc(Cl)cc2)CC1	inactive: 2.22%
CCC(CO)(C(=O)OC1CN2CCC1CC2)c1ccccc1 (centres undefined)	inactive: -0.487%
COc1cc(OC)cc(C(=O)NCC2(N3CCOCC3)CCCCC2)c1	inactive: -0.77%
COc1cccc(C(=O)N(c2cc(C)cc(C)c2)C2CCN(C(=O)OC(C)(C)C)CC2)c1	inactive: -3.02%
CCCOc1ccc(C(=O)NCC2(N(C)C)CCCCC2)cc1	inactive: -1.22%
O=C(O)C1(Nc2ccccc2)CCN(Cc2ccccc2)CC1	inactive: 2.96%
CC(C)(C)OC(=O)N1CCC(Nc2ccccc2)CC1	inactive: -2.36%
CN1CCC(Nc2ccc(F)c(Cl)c2)CC1	inactive: -8.01%
CCOc1ncccc1C(=O)NCC1(N2CCOCC2)CCCCC1	inactive: -4.82%
Cn1c(=O)[nH]cc(N(CCCl)CCCl)c1=O	inactive: -5.87%
CN(C)c1ccc(C(=O)NCC2(N3CCCCC3)CCCCC2)cc1	inactive: -1.56%
O=C(NCC1(N2CCCCC2)CCCCC1)c1ccco1	inactive: -3.81%
CCN1CCC(Nc2cccc(F)c2)CC1	inactive: -2.69%

Compound	inhibition
Cc1ccccc1NC1(C#N)CCN(Cc2ccccc2)CC1	inactive: -6.47%
Cc1ccc(NC2(C#N)CCN(Cc3ccccc3)CC2)cc1	inactive: 2.73%
Fc1ccccc1NC1CCN(Cc2ccccc2)CC1	inactive: 2.98%
Cc1ccc(C(=O)NCC2(N3CCCCC3)CCCCC2)o1	inactive: -0.272%
COc1cc(OC)cc(C(=O)NCC2(N3CCCCC3)CCCCC2)c1	inactive: -0.322%
CC(=O)N(c1ccccc1)C1CCNCC1	inactive: 5.03%
COc1cc(C(=O)NCC2(N(C)C)CCCCC2)ccc1OC(F)F	inactive: -0.178%
CCOC(=O)N1CCC(Nc2cccc(C)c2)CC1	inactive: -4%
COc1ccc(NC2CCN(CCc3ccccc3)CC2)c(OC)c1	inactive: -0.953%
CCOC(=O)N1CCC(Nc2ccc(F)cc2)CC1	inactive: 1.12%
O=C(NCC1(N2CCCCC2)CCCCC1)c1ccc(F)cc1	inactive: -6.01%
O=P1(N(CCCl)CCCl)SCCCS1	inactive: 7.06%
CCCCOc1ccc(C(=O)NCC2(N3CCOCC3)CCCCC2)cc1	inactive: 1.1%
CCOc1ccc(C)cc1CN(CCCl)CCCl	inactive: -18.6%
O=C1CCN(Cc2ccccc2)CC1	inactive: 0.118%
CCOC(=O)N1CCC(Nc2ccc(OC)cc2)CC1	inactive: 0.564%
COc1ccc(Cl)cc1C(=O)NCC1(N2CCOCC2)CCCCC1	inactive: -7.62%
O=C(OC1CN2CCC1CC2)C1c2ccccc2Oc2ccccc21 (centres undefined)	inactive: -1.07%
O=C(NCC1(N2CCCCC2)CCCCC1)c1ccc(Cl)s1	inactive: -3.06%
N#CC1(Nc2ccccc2)CCN(Cc2ccccc2)CC1	inactive: -1.97%
O=C(NCC1(N2CCOCC2)CCCCC1)c1cc2ccccc2o1	inactive: -6.37%
Cc1cc(C)cc(N(C(=O)c2ccccc2)C2CCN(C(=O)OC(C)(C)C)CC2)c1	inactive: 2.11%
O=C(NCC1(N2CCCCC2)CCCCC1)c1ccc(Cl)nc1	inactive: -6.84%
Cc1cccc(NC2(C#N)CCN(Cc3ccccc3)CC2)c1	inactive: -5.04%
CSc1ccccc1C(=O)NCC1(N2CCCCC2)CCCCC1	inactive: -0.0766%

Compound	inhibition
O=C(NCC1(N2CCCCC2)CCCCC1)c1cccs1	inactive: -2.74%
O=C(NCC1(N2CCCCC2)CCCCC1)c1ccc(=O)[nH]c1	inactive: -6.19%
CC(C)(C)OC(=O)N1CCC(N(C(=O)c2ccccc2)c2ccc(F)cc2)CC1	inactive: 2.84%
COc1ccc(C(=O)NCC2(N3CCCCC3)CCCCC2)c(OC)c1OC	inactive: -4.75%
COc1ccc(C(=O)NCC2(N3CCCCC3)CCCCC2)cc1	inactive: -4.78%
CCCOc1ccc(C(=O)NCC2(N(C)C)CCCCC2)cc1OC	inactive: -1.24%
O=C(NCC1(N2CCCCC2)CCCCC1)c1cncc(Br)c1	inactive: 3.12%
CN1CCC(Nc2cccc(F)c2)CC1	inactive: 2.98%
O=C(NCC1(N2CCOCC2)CCCCC1)c1cc(F)c(F)cc1Cl	inactive: 0.928%
COc1cc(OC)c(C(=O)NCC2(N(C)C)CCCCC2)cc1OC	inactive: -0.177%
CN(C)c1cccc(C(=O)NCC2(N3CCCCC3)CCCCC2)c1	inactive: 0.08%
COc1ccc(CN(CCCl)CCCl)cc1Cl	inactive: 2.07%
CC(C)c1ccc(NC2CCN(C(=O)OC(C)(C)C)CC2)cc1	inactive: -1.48%
CN1CCN(CCOC(=O)C(O)(c2ccccc2)c2ccccc2)CC1	inactive: 1.33%
CC(C)c1ccc(C(=O)NCC2(N3CCOCC3)CCCCC2)cc1	inactive: 3.5%
COc1ccc(NC2CCN(C(=O)OC(C)(C)C)CC2)cc1	inactive: -1.35%
COc1cc(C(=O)NCC2(N3CCCCC3)CCCCC2)ccc1OC(F)F	inactive: -2.77%
O=C(NCC1(N2CCOCC2)CCCCC1)c1cc(=O)[nH]c2ccccc12	inactive: 2.17%
O=C(NCC1(N2CCCCC2)CCCCC1)c1cccc(C(F)(F)F)c1	inactive: 2.24%
O=C(NCC1(N2CCCCC2)CCCCC1)c1cccc([N+](=O)[O-])c1	inactive: -1.6%
CSc1ccc(C(=O)NCC2(N3CCOCC3)CCCCC2)cc1	inactive: -0.801%
N#CC1(Nc2ccccc2)CCN(CCc2ccccc2)CC1	inactive: -1.52%
CCN1CCC(Nc2ccc(Cl)cc2)CC1	inactive: -1.55%
O=C(NCC1(N2CCCCC2)CCCCC1)c1ccc(OC(F)F)cc1	inactive: 5.48%
